In one assay the test system is Pd VIN3_123-326. In words: ITC binding to Pd VIN3 PHD superdomain. Set-up: species or system Phoenix dactylifera. Particulars: for binding of phosphorylated peptides (in words): VIN3_123-326, E. F.-E., unpublished. As for the experimental part:
(§1) VIN3_123-326 from P. dactilyfera was amplified by PCR from synthetic codon optimized genes (gBlocks, Integrated DNA Technologies) and subcloned into pEC-LIC-His-3C (kindly provided by Jurg Muller) containing a hexahistidine tag and a 3C protease cleavage site at the N terminus. VIN3_123-326 was expressed and purified as described previously for VIN3_150-208. In this case, after 3C cleavage overnight, the sample was loaded on a HiLoad 26/600 Superdex 200 pg column (GE Healthcare) in 25 mM Tris pH 8, 150 mM NaCl, and 1 mM DTT.
ITC was carried out at 25 °C with an iTC 200 Microcalorimeter (GE Healthcare) in 25 mM Tris pH 8, 150 mM NaCl, and 1 mM DTT. Titrations consisted of 19 consecutive 2 μl injections of 0.25 to 1 mM peptide solution (following a preinjection of 0.5 μl) into 50 μM protein (VIN3PHD, VIN3_123-326, VIN3_116-307, OBE1_193-372, or pVP13 VIN3_130-299) at time intervals of 120 s. ITC data were analyzed using MicroCal PEAQ-IT Analysis Software (Malvern Sciences).

Assay [1] concerns ^15N-labeled Pd VIN3_123-326. Briefly: NMR (BEST-TROSY) binding of histone H3 peptides to Pd VIN3 PHD superdomain. More on the design: species or system Phoenix dactylifera. The following applies: NMR 600 MHz; 50 μM ^15N-labeled VIN3_123-326 + 0.5 mM peptide, 25 mM Tris pH 8, 150 mM NaCl, 1 mM DTT, >30 min. As for the experimental part: as §1
For NMR spectroscopy, A. thaliana VIN3_150-208 and P. dactilyfera VIN3_123-326 were expressed in M9 minimal medium supplemented with 0.4% glucose, antibiotics, trace elements, 25 ml overnight culture, and 2 g of ^15N-H4Cl per liter of expression culture. Cultures were grown and processed essentially as described before. NMR samples containing 50 μM ^15N-labeled VIN3_150-208 or VIN3_123-326 were prepared in aqueous buffer (25 mM Tris pH 8, 150 mM NaCl, and 1 mM DTT). The 50 μM ^15N-labeled VIN3_150-208 or VIN3_123-326 was incubated with 0.5 mM histone H3 peptides resuspended in 25 mM Tris pH 8, 150 mM NaCl, and 1 mM DTT for >30 min before measurement. Spectra were recorded on a Bruker Avance-III spectrometer operating at 600 MHz ^1H frequency and equipped with a 5 mm inverse detection cryogenic probe. […]

The test system of the next assay is VIN3PHD. Particulars: pull-down assays; Arabidopsis VIN3 PHD / VEL PHD modules; cited from earlier work. The source says:
A classical PHD signature motif is also found in plant VEL proteins ([18]). During vernalization, VEL proteins associate with Polycomb Repressive Complex 2 and are required for epigenetic silencing of the Arabidopsis FLOWERING LOCUS C (FLC) ([19]). […] Since we expected the OBE PHD superdomain to bind to H3K4me peptides, based on its architecture and negative surface charge, we used ITC to assay purified PHD superdomain from Arabidopsis OBE1 (OBE1_193-272) for its binding to H3K4me2.

Turning to “H3S10p (1–15): histone H3 peptide phosphorylated at serine 10”, the “binding of phosphorylated peptides (in words)” value with Pd VIN3_123-326 is recorded as “equally negative”. Further, in assay [1], the “binding / perturbation of BEST-TROSY spectra (in words)” value was “equally negative”.

In the case of “H3T3p (1–15): histone H3 peptide phosphorylated at threonine 3”, the “binding of phosphorylated peptides (in words)” value with Pd VIN3_123-326 is “equally negative”. In addition, the “binding / perturbation of BEST-TROSY spectra (in words)” value in assay [1] is given as “equally negative”.

On to “H3K9me2 (1–15): methylated histone H3 tail peptide, residues 1–15”, for which, in the assay on VIN3PHD, the “binding to VEL/VIN3 PHD finger, previous reports (in words)” value was “strongly positive”. Moreover, the “binding (in words)” value with Pd VIN3_123-326 (25 °C, 25 mM Tris pH 8, 150 mM NaCl, 1 mM DTT, 0.25 to 1 mM peptide into 50 μM Pd VIN3_123-326) was “unable to detect binding”.

Values taken from paper PMC9640981, “Plant vernalization proteins contain unusual PHD superdomains without histone H3 binding activity” (The Journal of Biological Chemistry, 2022).
